Laboratory results reported in US10668168B2, “Method for removing weakly bound functional moieties from cell targeting conjugates” (priority 2015, dated 2020).

Assay: Released NBD label after thiourea stripping of conjugates prepared with varying conjugation times
Format: physicochemical
Conditions: thiourea 10 mM, 37 °C, 30 minutes

## NBD-4Py-Lx-trastuzumab
Conjugation time 2 h
  Released label (%): 47.1%
Conjugation time 6 h
  Released label (%): 44.8%
